Some results are limits rather than exact numbers.

Chains of the proteins cited; added tags and fusions are not shown.
UniProt P21554, whole entry: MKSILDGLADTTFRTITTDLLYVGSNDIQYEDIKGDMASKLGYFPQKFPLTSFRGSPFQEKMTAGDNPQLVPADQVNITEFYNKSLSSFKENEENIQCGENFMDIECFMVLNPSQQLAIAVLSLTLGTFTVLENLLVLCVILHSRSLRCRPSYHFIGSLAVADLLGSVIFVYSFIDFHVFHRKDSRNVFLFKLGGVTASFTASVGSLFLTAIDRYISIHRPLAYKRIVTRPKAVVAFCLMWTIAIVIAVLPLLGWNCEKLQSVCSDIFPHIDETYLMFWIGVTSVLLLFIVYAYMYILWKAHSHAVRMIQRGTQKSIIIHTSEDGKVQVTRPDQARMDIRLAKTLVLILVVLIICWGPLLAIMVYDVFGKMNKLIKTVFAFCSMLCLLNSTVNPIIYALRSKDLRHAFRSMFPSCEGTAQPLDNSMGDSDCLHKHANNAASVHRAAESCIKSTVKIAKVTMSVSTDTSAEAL
UniProt P34972, whole entry: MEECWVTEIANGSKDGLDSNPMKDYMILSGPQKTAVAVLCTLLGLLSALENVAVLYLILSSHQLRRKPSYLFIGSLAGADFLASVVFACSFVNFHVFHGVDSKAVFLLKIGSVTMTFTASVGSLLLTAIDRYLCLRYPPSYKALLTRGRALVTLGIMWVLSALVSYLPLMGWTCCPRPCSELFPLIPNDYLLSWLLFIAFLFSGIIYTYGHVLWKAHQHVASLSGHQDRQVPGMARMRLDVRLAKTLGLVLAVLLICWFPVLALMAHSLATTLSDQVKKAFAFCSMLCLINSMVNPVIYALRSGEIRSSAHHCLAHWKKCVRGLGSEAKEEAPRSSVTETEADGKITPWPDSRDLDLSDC

In US8088924B2, “Pyridone derivatives having a binding activity to the cannabinoid type 2 receptor” (Shionogi & Co., Ltd., priority 2000, dated 2012) one finds Ki and IC50 data, which are given here for one compound.

One assay addresses human CB1 receptor (Homo sapiens, UniProt P21554). The assay is described as follows: Human CB1 receptor binding assay ([3H]CP55940, membranes of CB1R-expressing CHO cells). The conditions noted are these: read-out: Ki, CB1 receptor, [3H]CP55940 0.5 nM.
In assay [1] the target is T1, human CB2R (Homo sapiens, UniProt P34972). Put plainly: CB2 receptor-mediated suppression of forskolin-stimulated cAMP synthesis (agonistic activity). In kind it is cell-based. Conditions: read-out: IC50, inhibition of forskolin-stimulated cAMP synthesis; CHO cells expressing human CB2R, forskolin 4 μM. As to the method:
The CHO cells expressing human CB2R were incubated with test compounds for 15 min. After the incubation, forskolin (final concentration of 4 μM, Sigma) was added and the cells were incubated for 20 min at 37° C. The reaction was stopped by the addition of 1N HCl and the amount of cAMP in the cell supernatant was measured using an EIA kit (Amersham Pharmacia. Biotech) according to the manufacture's protocol. The cAMP amount increased by forskolin compared to that in the absence of forskolin was defined as 100%, and the IC50 value of each test compound was determined as the concentration at which 50% of the forskolin-stimulated cAMP synthesis was inhibited.

In assay [2] the target is T1, human CB2R. The assay is described as follows: Human CB2 receptor binding inhibition ([3H]CP55940, membranes of CB2R-expressing CHO cells). Conditions: read-out: Ki, CB2 receptor, [3H]CP55940 0.5 nM.

In the case of `CCCCn1c2c(cc(C(=O)NCCc3ccccc3)c1=O)CCCCCCCC2`, the Ki (in general, a dissociation constant, usually derived from enzyme kinetics or from competition with a known ligand) on human CB1 receptor was more than 5000 nM; on human CB2R [2], 4 nM. On human CB2R [1], the IC50 (as a rule, the midpoint of a concentration-inhibition curve) was 1.3 nM.
